# Apparent affinities of Ab-91 variants for a coronavirus HR2 peptide

Reference: Engelhart et al. 2022, doi:10.1038/s41597-022-01779-4. File: FLAb, binding data.

All variants were tested on one target, the spike HR2 peptide PDVDLGDISGINAS (SARS-CoV-2).

Parent scFv Ab-91: VL joined to VH by a (GGGGS)3 linker. Changes lie in the heavy chain CDRs alone.
VL: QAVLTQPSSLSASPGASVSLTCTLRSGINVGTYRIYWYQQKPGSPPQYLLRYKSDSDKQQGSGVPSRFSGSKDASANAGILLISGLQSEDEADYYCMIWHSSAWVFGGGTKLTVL
VH: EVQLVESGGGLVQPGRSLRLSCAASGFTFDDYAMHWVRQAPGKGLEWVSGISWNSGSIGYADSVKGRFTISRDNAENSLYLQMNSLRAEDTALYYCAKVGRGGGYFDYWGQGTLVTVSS

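Library AAYL51 holds single substitutions and randomly drawn double and triple substitutions in the CDRs. Affinity was read by AlphaSeq, a pooled yeast mating assay with surface-displayed partners. Binding brings cells together so that they mate, and sequencing counts the barcode pairs among the diploids. Read counts were normalised to the haploid input and turned into Kd by a linear fit to BCL2-family pairs of known affinity, for each replicate. The assay was run in three technical replicates.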

Changes read parent residue, position, new residue, counted from the first residue of the VH shown.
Each Kd is an estimate from the mating assay, the geometric mean of the replicates in which the pair was seen; lower is stronger.
"not detected" marks a missing value. The strain was present, yet no cells mated with the target were sequenced in any replicate, which points to weak or no binding.
Three control strains display no target. For library AAYL51, 21% of the pairings with them gave a signal, with a median of 34 µM and one signal in twenty below 1.8 µM, so weak values seen in few replicates may be background.

changes,Kd,replicates with signal
W53I G100L G103T,170 µM,1 of 3
I51M S52V G102R,73 µM,1 of 3
S57Y F106R D107W,not detected,0 of 3
S63R F106S Y108D,2.7 µM,1 of 3
D30G G102A Y105T,not detected,0 of 3
I51S D62F,not detected,0 of 3
D30L N54L A61N,not detected,0 of 3
H35C I51E V64P,6.6 µM,1 of 3
A33L G100M R101L,6.3 µM,1 of 3
D31K Y32I G56C,34 µM,1 of 3
F27D H35K F106Q,2.4 µM,1 of 3
G56D R101W F106R,82 µM,3 of 3
W53I R101Q G102M,3.0 mM,1 of 3
M34T S52P F106V,93 µM,2 of 3
Y32I I51E F106C,84 µM,1 of 3
H35R G56K I58K,not detected,0 of 3
A33Y W53R Y60W,21 µM,1 of 3
F27M G102L,not detected,0 of 3
A33T G50V W53Q,7.9 µM,1 of 3
Y32M S63C,910 nM,3 of 3
S52V R101L F106N,71 µM,1 of 3
G59M D62P G100A,69 µM,1 of 3
T28Q H35P Y60P,880 µM,1 of 3
F29P V64N,14 µM,1 of 3
D30W M34F S63G,17 µM,1 of 3
N54D G59E Y60A,not detected,0 of 3
S52G I58R G104F,not detected,0 of 3
D31T N54I I58Q,not detected,0 of 3
G100I R101G Y108W,not detected,0 of 3
S57V F106S,not detected,0 of 3

Continued, with the values leading:

Kd,replicates with signal,changes
8.3 µM,1 of 3,Y32M G50T S55V
not detected,0 of 3,I51N Y60N V99H
not detected,0 of 3,G56K V64R Y105R
330 µM,2 of 3,T28K S57P V99T
2.1 µM,3 of 3,G103C G104M Y105T
not detected,0 of 3,T28E G100C R101L
34 µM,1 of 3,D30P Y60P G100R
24 nM,3 of 3,G56E S57F I58Q
not detected,0 of 3,Y32M Y105Q
62 µM,2 of 3,D30N Y60R V64F
12 µM,2 of 3,G26N D30M S55W
19 µM,1 of 3,Y32G S63C Y105H
not detected,0 of 3,D31L W53C Y60N
15 µM,2 of 3,N54I G59T V64C
110 µM,3 of 3,Y32D I51L Y105W
not detected,0 of 3,G56W S57I F106A
not detected,0 of 3,N54V G59R S63V
63 µM,3 of 3,D31T H35V G103Q
250 µM,3 of 3,D31Q G50K S55Y
5.5 µM,1 of 3,S52V I58Y G59K
not detected,0 of 3,K65P Y105E Y108C
14 µM,2 of 3,D30I S57E G102C
not detected,0 of 3,G50E I51N G59E
430 nM,3 of 3,Y105W D107M
16 µM,3 of 3,D30W Y32Q D62V
39 µM,2 of 3,F29P Y60F Y108Q
29 µM,2 of 3,I51K G56S F106T
7.7 µM,1 of 3,S52Q S63W D107P
140 µM,1 of 3,I51N W53Y V64A
55 µM,3 of 3,M34H S52D G56V

A selection of 3 entries from above:

{"changes": "G56K V64R Y105R", "Kd": "not detected", "replicates with signal": "0 of 3"}
{"changes": "G56W S57I F106A", "Kd": "not detected", "replicates with signal": "0 of 3"}
{"changes": "S52V R101L F106N", "Kd": "71 µM", "replicates with signal": "1 of 3"}